Measurements: patent US20060079439A1, “Elastin prevents occlusion of body vessels by vascular smooth muscle cells” (priority 2002, published 2006)

Test system: Eln −/− vascular smooth muscle cells
Details: for percentage of cells with actin stress fibers and defined focal adhesions (scoring): compared with untreated cells or control peptide, at least 100 cells in 3 cultures

Molecule	percentage of cells with actin stress fibers and defined focal adhesions (scoring)	increase of the percentage of Eln −/− cells with organized actin stress fibers (1.0 ug/ml, within 3 hours of exposure) [fold]	percentage of Eln −/− cells with organized actin stress fibers (1.0 ug/ml, within 3 hours of exposure, untreated Eln −/− cells 23%) [%]
VGVAPG (A bioactive fragment of tropoelastin.) [elastin peptide]	significant increase		
tropoelastin: protein encoded by the elastin gene; human amino acid sequence SEQ ID NO: 2; used as recombinant tropoelastin (protein, listed as Homo sapiens) MAGLTAAAPRPGVLLLLLSILHPSRPGGVPGAIPGGVPGGVFYPGAGLGALGGGALGPGGKPLKPVPGGLAGAGLGAGLGAFPAVTFPGALVPGGVADAAAAYKAAKAGAGLGGVPGVGGLGVSAGAVVPQPGAGVKPGKVPGVGLPGVYPGGVLPGARFPGVGVLPGVPTGAGVKPKAPGVGGAFAGIPGVGPFGGPQPGVPLGYPIKAPKLPGGYGLPYTTGKLPYGYGPGGVAGAAGKAGYPTGTGVGPQAAAAAAAKAAAKFGAGAAGVLPGVGGAGVPGVPGAIPGIGGIAGVGTPAAAAAAAAAAKAAKYGAAAGLVPGGPGFGPGVVGVPGAGVPGVGVPGAGIPVVPGAGIPGAAVPGVVSPEAAAKAAAKAAKYGARPGVGVGGIPTYGVGAGGFPGFGVGVGGIPGVAGVPSVGGVPGVGGVPGVGISPEAQAAAAAKAAKYGVGTPAAAAAKAAAKAAQFGLVPGVGVAPGVGVAPGVGVAPGVGLAPGVGVAPGVGVAPGVGVAPGIGPGGVAAAAKSAAKVAAKAQLRAAAGLGAGIPGLGVGVGVPGLGVGAGVPGLGVGAGVPGFGAGADEGVRRSLSPELREGDPSSSQHLPSTPSSPRVPGALAAAKAAKYGAAVPGVLGGLGALGGVGIPGGVVGAGPAAAAAAAKAAAKAAQFGLVGAAGLGGLGVGGLGVPGVGGLGGIPPAAAAKAAKYGAAGLGGVLGGAGQFPLGGVAARPGFGLSPIFPGGACLGKACGRKRK	significant increase	3	74
